# According to ChEMBL document CHEMBL1123702, “Functionalized DL-amino acid derivatives. Potent new agents for the treatment of epilepsy” (J Med Chem, 1987):
# Assays:
# [1] = Protectivity index is the ratio of TD50 /MES ED50 from Phase-IV evaluation; type: functional
# In short: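 MES protection: hind-limb tonic extension abolished. sc Met: pentylenetetrazole 85 mg/kg as 0.5% solution sc, 30 min observation; protection: no threshold clonic seizure of 5 s or more. Toxicity: failing to stay 1 min on a 6 rpm rod. PI = TD50/MES ED50.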
# [2] = Protectivity index is the ratio of TD50 /MES ED50 from Phase-II evaluation; type: functional
# In short: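 MES protection: hind-limb tonic extension abolished; saline drop in eye before electrodes. sc Met: pentylenetetrazole 85 mg/kg as 0.5% solution sc in posterior midline, 30 min observation; protection: no clonic spasm episode of at least 5 s. Rotarod toxicity: falling off a 1-in. rod at 6 rpm within 1 min. PI = TD50/MES ED50.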
smiles,measurement,setting,value
CCC1(C)CC(=O)NC1=O (configuration not stated) [ETHOSUXIMIDE],Protective Index,[1],< 0.44
same,Protective Index,[2],< 0.44
